Source: ChEMBL document CHEMBL1649335 (Bioorg Med Chem, 2010)

How the values were obtained:
Homo sapiens [1] = species: Homo sapiens; experiment: Selectivity ratio, ratio of Ki for human KOP receptor to Ki for human NOP receptor
Homo sapiens [2] = species: Homo sapiens; experiment: Selectivity ratio, ratio of Ki for human MOP receptor to Ki for human NOP receptor
Homo sapiens [3] = species: Homo sapiens; experiment: Selectivity ratio, ratio of Ki for human ERG to Ki for human NOP receptor
Homo sapiens [4] = species: Homo sapiens; experiment: Selectivity ratio, ratio of Ki for human DOP receptor to Ki for human NOP receptor

## OCC1(N2CCC(n3c(N4CC5CNCC5C4)nc4ccccc43)CC2)CCCCCCC1 (centres undefined)
Homo sapiens [1]
  Ratio Ki: > 400
Homo sapiens [2]
  Ratio Ki: 140
Homo sapiens [3]
  Ratio Ki: 2570
Homo sapiens [4]
  Ratio Ki: > 3470
